Data reported in publication PMC12056073.

Target: TRAIL-R2-moFc, O14763
Test: ELISA; TRAIL-R2-moFc (DR5-moFc) coated at 3 µg/ml (0.3 µg/well) overnight at 4 °C; fusion proteins titrated 1:4 from 100 nM in MPBS, 1 h, RT; detected with HRP-conjugated anti-human Fc antibody; n = 3

| Binder | EC50 |
| --- | --- |
| Fc-scTRAIL (0 + 2), P50591 118-281; P50591 118-281; P50591 118-281 (Fc fusion, modifications not checked) GPQRVAAHITGTRGRSNTLSSPNSKNEKALGRKINSWESSRSGHSFLSNLHLRNGELVIHEKGFYYIYSQTYFRFQEEIKENTKNDKQMVQYIYKYTSYPDPILLMKSARNSCWSKDAEYGLYSIYQGGIFELKENDRIFVSVTNEHLIDMDHEASFFGAFLVGGPQRVAAHITGTRGRSNTLSSPNSKNEKALGRKINSWESSRSGHSFLSNLHLRNGELVIHEKGFYYIYSQTYFRFQEEIKENTKNDKQMVQYIYKYTSYPDPILLMKSARNSCWSKDAEYGLYSIYQGGIFELKENDRIFVSVTNEHLIDMDHEASFFGAFLVGGPQRVAAHITGTRGRSNTLSSPNSKNEKALGRKINSWESSRSGHSFLSNLHLRNGELVIHEKGFYYIYSQTYFRFQEEIKENTKNDKQMVQYIYKYTSYPDPILLMKSARNSCWSKDAEYGLYSIYQGGIFELKENDRIFVSVTNEHLIDMDHEASFFGAFLVG | 0.493 nM |
| scTRAIL-Fc (0 + 2), P50591 118-281; P50591 118-281; P50591 118-281 (Fc fusion, modifications not checked) GPQRVAAHITGTRGRSNTLSSPNSKNEKALGRKINSWESSRSGHSFLSNLHLRNGELVIHEKGFYYIYSQTYFRFQEEIKENTKNDKQMVQYIYKYTSYPDPILLMKSARNSCWSKDAEYGLYSIYQGGIFELKENDRIFVSVTNEHLIDMDHEASFFGAFLVGGPQRVAAHITGTRGRSNTLSSPNSKNEKALGRKINSWESSRSGHSFLSNLHLRNGELVIHEKGFYYIYSQTYFRFQEEIKENTKNDKQMVQYIYKYTSYPDPILLMKSARNSCWSKDAEYGLYSIYQGGIFELKENDRIFVSVTNEHLIDMDHEASFFGAFLVGGPQRVAAHITGTRGRSNTLSSPNSKNEKALGRKINSWESSRSGHSFLSNLHLRNGELVIHEKGFYYIYSQTYFRFQEEIKENTKNDKQMVQYIYKYTSYPDPILLMKSARNSCWSKDAEYGLYSIYQGGIFELKENDRIFVSVTNEHLIDMDHEASFFGAFLVG | 0.383 nM |
